The target in test [1] is NLRP3^PYD/fSAH-POP1-12 PPI (Homo sapiens, UniProt Q96P20). The experiment in a line: FP competitive inhibition assay, NLRP3^PYD/fSAH-POP1-12 PPI. The conditions noted are these: read-out: Ki to disrupt the NLRP3^PYD/fSAH-POP1-12 PPI; 3 μM human NLRP3, 5 nM fluorescein-labeled fSAH-POP1-12, 1% DMSO; Ki derived from IC50. The protocol: (§1) FP Competitive Inhibition Assays: All the tested compounds were prepared as 10 mM DMSO stocks. In the primary screen, the concentrations of the compounds and DMSO were set to 50 μM and 1% (v/v). In the FP competitive inhibition assay, 3 μM human NLRP3 and 5 nM of N-terminally fluorescein-labeled fSAH-POP1-12 were incubated in an assay buffer of 25 mM Hepes (pH 7.4), 100 μg/mL of bovine γ-globulin, and 0.01% Triton-X100 for 15 min at 4° C. Bovine γ-globulin and Triton-X100 were included in the assay buffer to decrease the likelihood of compound acting by aggregate formation and nonspecific binding. Different concentrations of the tested compounds in the assay buffer were added to each test plate to make a final volume of 100 μL. Each assay plate was covered black and gently mixed on an orbital shaker at 4° C. for 1.5 h to reach equilibrium before the polarization values were read. The IC50 value was determined by nonlinear least-square analysis of GraphPad Prism 5.0. The Ki values were derived (Nikolovska-Coleska et al., 2004). Experiments were performed in triplicate and carried out in the presence of 1% DMSO.

By UniProt entry, the sequences of proteins in these tests, tags left out. Residues count along the entry.
UniProt Q96P20, 1-93 limits assumed: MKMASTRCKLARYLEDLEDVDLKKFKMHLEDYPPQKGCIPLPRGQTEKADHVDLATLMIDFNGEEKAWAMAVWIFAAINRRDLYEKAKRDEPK
UniProt Q9ULZ3, 1-91 limits assumed: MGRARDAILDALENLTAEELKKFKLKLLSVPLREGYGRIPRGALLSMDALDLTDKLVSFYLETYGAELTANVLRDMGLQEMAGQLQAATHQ

The target of test [2] is GST-ASC^PYD/fSAH-POP1-12 PPI (Homo sapiens, UniProt Q9ULZ3). Description: FP competitive inhibition assay, GST-ASC^PYD/fSAH-POP1-12 PPI. How it is done:
as §1

This note sets out measurements from patent publication US12319685B2.

As to `CCOC(=O)c1cc2c([nH]c3ccccc32)c(C(N)=O)n1`, the Ki in test [1] worked out at 1500 nM. Besides, the “effect on GST-ASC^PYD/fSAH-POP1-12 PPI” value in test [2] was “no effect”.
